The target of experiment [1] is MLL4(5308–5537) SET domain construct containing the WIN motif, AviTag, biotinylated (human) (UniProt O14686). Nature of the experiment: BLI; Octet RED; biotinylated MLL1 or MLL4 construct immobilised on streptavidin biosensors; WRAD 62.5-500 nM; room temperature; 50 mM Tris-HCl pH 7.5, 350 mM NaCl, 10% glycerol, 0.5 mM DTT, 0.05% Tween 20; association 400 s, dissociation 2000 s.

For experiment [2] the target is unchanged.

Regarding “WRAD complex (WDR5, RbBP5, Ash2L, and Dpy-30) (from UniProt P61965 1-334; Q8BX09 1-538; Q91X20 1-623; Q99LT0 1-99)”, the Kd in experiment [1] was 25 nM. Besides, in experiment [2], the kcat of H3 peptide methyltransferase activity of the MLL4-WRAD complex came out at 0.0442 s⁻¹ and the kcat of H3 peptide methyltransferase activity with equimolar WRAD, against the intrinsic activity without WRAD is 4 fold.
